Among the data in patent US20250034125A1, “COMPOUNDS AND USES THEREOF” (JANSSEN PHARMACEUTICA NV, priority 2019, published 2025) are IC50 values, retold here.

Where two headings read alike, the source gives them in different places.

A word on the IC50: it is the point on the concentration scale where inhibition reaches its midpoint.

For one assay, the target named is T1, SCD1 (Homo sapiens, UniProt O00767).
T1 construct: host or cells: Saccharomyces cerevisiae ole1Δ strain (W303 pdr1Δ pdr3Δ background), plasmid pRS316, TDH3 promoter
T1 sequence (O00767 1-359): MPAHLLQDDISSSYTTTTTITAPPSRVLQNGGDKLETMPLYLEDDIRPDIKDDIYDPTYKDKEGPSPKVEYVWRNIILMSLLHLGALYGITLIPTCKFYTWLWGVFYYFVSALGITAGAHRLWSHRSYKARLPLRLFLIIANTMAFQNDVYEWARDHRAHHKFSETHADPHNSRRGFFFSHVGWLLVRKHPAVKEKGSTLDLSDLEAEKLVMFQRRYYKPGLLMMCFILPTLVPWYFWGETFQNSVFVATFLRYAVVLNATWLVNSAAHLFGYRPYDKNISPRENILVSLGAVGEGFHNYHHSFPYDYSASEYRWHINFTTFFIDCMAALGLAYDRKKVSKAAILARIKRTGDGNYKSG
In words: Growth inhibition of yeast (ole1Δ) expressing human SCD1 as the sole desaturase. It is filed as cell-based.

The target of the next assay is T2, SCD5 (Homo sapiens, UniProt Q86SK9).
T2 construct: host or cells: Saccharomyces cerevisiae ole1Δ strain (W303 pdr1Δ pdr3Δ background), plasmid pRS316, TDH3 promoter
T2 sequence (Q86SK9 1-330): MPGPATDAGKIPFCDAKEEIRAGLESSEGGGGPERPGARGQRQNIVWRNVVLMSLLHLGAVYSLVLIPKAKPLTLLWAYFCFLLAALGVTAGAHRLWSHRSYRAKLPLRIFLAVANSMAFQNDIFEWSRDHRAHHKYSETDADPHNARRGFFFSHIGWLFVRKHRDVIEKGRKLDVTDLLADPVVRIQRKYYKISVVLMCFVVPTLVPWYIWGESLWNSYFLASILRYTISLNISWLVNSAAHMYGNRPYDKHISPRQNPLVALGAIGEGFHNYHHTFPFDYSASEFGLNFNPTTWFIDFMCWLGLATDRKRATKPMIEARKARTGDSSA
Put plainly: Growth inhibition of yeast (ole1Δ) expressing human SCD5 as the sole desaturase. It is filed as cell-based.

`Cn1nc(NC(=O)N2CCC(Cc3ccccc3Cl)CC2)ccc1=O` [Compound 42, 4-(2-chlorobenzyl)-N-(1-methyl-6-oxo-1,6-dihydropyridazin-3-yl)piperidine-1-carboxamide]: the results for the IC50 against SCD1 and on SCD5 were 0.44 µM and 0.03 µM, respectively. As for `Cn1nc(-c2nc(N3CCC(Cc4cccc(F)c4)CC3)no2)ccc1=O` [Compound 114, 6-(3-(4-(3-fluorobenzyl)piperidin-1-yl)-1,2,4-oxadiazol-5-yl)-2-methylpyridazin-3(2H)-one], the IC50 on SCD1 (yeast strain with SCD1 plasmid, OD600 growth read at 40 h, read-out: SCD1 IC50) came out at 1.7 µM.
